In this assay the target is 6HIS-HiBiT-GEMIN3_(aa41-268) (human) (UniProt Q9UHI6).

The chains behind the UniProt entries cited, without tags or fusion partners. Residues count along the entry.
UniProt Q9UHI6, 41-268: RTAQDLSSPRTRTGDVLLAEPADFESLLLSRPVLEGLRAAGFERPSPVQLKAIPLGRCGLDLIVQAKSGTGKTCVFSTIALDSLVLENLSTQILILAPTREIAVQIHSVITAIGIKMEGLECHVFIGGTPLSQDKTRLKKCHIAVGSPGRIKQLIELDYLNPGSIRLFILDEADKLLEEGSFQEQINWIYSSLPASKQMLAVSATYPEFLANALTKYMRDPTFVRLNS
UniProt P40337, whole entry: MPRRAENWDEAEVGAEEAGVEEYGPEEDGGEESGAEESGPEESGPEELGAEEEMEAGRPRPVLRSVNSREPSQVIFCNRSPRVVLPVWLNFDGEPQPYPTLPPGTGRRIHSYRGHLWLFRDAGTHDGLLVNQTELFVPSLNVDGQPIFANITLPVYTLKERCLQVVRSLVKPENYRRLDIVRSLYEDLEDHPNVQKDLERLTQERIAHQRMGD
UniProt Q15369, whole entry: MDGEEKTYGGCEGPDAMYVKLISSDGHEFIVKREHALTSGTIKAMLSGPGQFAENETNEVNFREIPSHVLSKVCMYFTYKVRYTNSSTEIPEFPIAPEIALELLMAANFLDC

“Untagged VHL/EloB/EloC (VBC) (from UniProt P40337;Q15370;Q15369) (complex)” returned a Dmax of cellular GEMIN3 degradation (HiBiT-GEMIN3 HEK293T) with dGEM3 of 81%.

For the origin of these results see publication doi:10.1101/2025.03.19.644003.
